Measured values published in US10869871B2, “Compositions and methods of modulating short-chain dehydrogenase activity” (CASE WESTERN RESERVE UNIVERSITY, priority 2013, dated 2020).

Columns and labels:
[1] = test system: 15-PGDH mRNA; assay: 15-PGDH mRNA levels in colon cancer cell lines by real-time PCR; format: cell-based; conditions: treated colon cancer cell lines
[2] = test system: 15-PGDH protein; assay: Western blot of 15-PGDH protein levels in treated cell lines; format: cell-based; conditions: V400-M3-2-72 cells

## COc1ccc(-c2cc(C(F)(F)F)n3nc(C(=O)N4CCCCC4)cc3n2)cc1
[1]
  15-PGDH mRNA levels: do not in general alter 15-PGDH mRNA levels
[2]
  protein levels of catalytically dead mutant 15-PGDH (mu-PGDH): increases protein levels of a catalytically dead mutant 15-PGDH
